# Measured values taken from publication PMC10799042 (Scientific Reports, 2024).
# How the values were obtained:
# Catalase = conditions: brain THS of mice, scopolamine 1.5 mg/kg i.p.; donepezil and compounds 2 mg/kg p.o.; mean ± SD
# [1] = tested on: Reduced glutathione (GSH); experiment: Reduced glutathione (GSH) assay in brain homogenate; assay type: in vivo; conditions: brain THS of mice, scopolamine 1.5 mg/kg i.p.; donepezil and compounds 2 mg/kg p.o.; mean ± SD
# malondialdehyde (MDA) = experiment: Lipid peroxidation (LPO) assay, MDA in brain homogenate; assay type: in vivo; conditions: brain THS of mice, scopolamine 1.5 mg/kg i.p.; donepezil and compounds 2 mg/kg p.o.; mean ± SD
# nitrite = experiment: Nitrite assay (Greiss reagent) in brain homogenate; assay type: in vivo; conditions: brain THS of mice, scopolamine 1.5 mg/kg i.p.; donepezil and compounds 2 mg/kg p.o.; mean ± SD
# [2] = tested on: Superoxide dismutase (SOD); experiment: Superoxide dismutase (SOD) assay in brain homogenate; assay type: in vivo; conditions: brain THS of mice, scopolamine 1.5 mg/kg i.p.; donepezil and compounds 2 mg/kg p.o.; mean ± SD
# [3] = tested on: scopolamine-induced memory impairment and learning disability in mice; experiment: Morris water maze, scopolamine-induced memory impairment; assay type: in vivo, Swiss albino male mice; conditions: scopolamine 1.5 mg/kg i.p., donepezil and compounds 2 mg/kg p.o. with scopolamine, day 1, mean ± SD
# Description: Swiss albino male mice weighing 25–30 g were purchased from LLRUVAS in Hisar, Haryana, India. […] The housing, care, and handling of the animals were done per CPCSEA requirements. The animals were exposed to the laboratory setting for seven days before the experiment.
# Five days of continuous animal evaluations were conducted using the MWM model. It consists of a circular water tank (120 cm × 60 cm; interior painted black) filled to a height of 55 cm with water that is (25 ± 2 °C)[7]. The tank was placed in a dim laboratory, and using wires anchored at the pool's edge at an angle to one another, it was divided into four equal pieces (P1–P4). A stage in the targeted area (P4) of the pool with an upper face (6 × 6 cm^2) immersed in the water (1.0 cm below the surface). The location of the stage stayed the same throughout the evaluation. The animals were subjected to water pools throughout the evaluation by turning their heads towards the wall from any of the four segments, namely P1-P4, and being given 90 s to recognise the stage placed in a pool. If the animal couldn't get to the stage in 90 s, they were gently guided onto the stage under supervision. On the sixth day, one of the parameters used to determine if cognitive impairments have recovered was the time it took the mice to travel from the initial portion to locate the hidden stage in the intended part (escape latency).
# . […]
Substance,"Catalase assay, Catalase activity (Catalase)","GSH assay, μmol of GSH/mg Protein [1]","LPO assay, MDA levels (malondialdehyde (MDA))","Nitrite assay, nitrite conc. (nitrite)","SOD assay, SOD units/mg protein [2]","Escape latency, 1st Day [3]"
N-(1-benzylpiperidin-4-yl)-2-(2-oxoindolin-3-yl)acetamide [Compound 23],5.13 ± 0.03 min⁻¹,0.10 ± 0.007 μmol of GSH/mg Protein,9.77 ± 0.04 nM/mg of tissue,15.2 ± 0.03 μM/mg protein,3.07 ± 0.02 SOD units/mg protein,–
"N-(1-(1-(3,4-dimethoxybenzyl)-2-oxopyrrolidin-3-yl)piperidin-4-yl)-4-fluorobenzenesulfonamide [Compound 8]",–,–,–,–,–,80.66 ± 0.81 s
"2-(1-benzylpiperidin-4-yl)-6,7-dimethoxy-4-(4-methoxyphenyl)quinoline [Compound 18]",–,–,–,–,–,80.66 ± 0.81 s
